{
  "source": "paper PMC11089510",
  "about": "“Unexpected Noncovalent Off-Target Activity of Clinical BTK Inhibitors Leads to Discovery of a Dual NUDT5/14 Antagonist” (Journal of Medicinal Chemistry, 2024)",
  "molecular_target": "NUDT5 (Homo sapiens, UniProt Q9UKK9)",
  "assay": "crystal structure; NUDT5 (26 mg/mL) cocrystallised with ibrutinib (1) (2.5 mM, 25 mM MgCl2; 0.1 M tris pH 8.0, 33% PEG4000, 0.2 M MgCl2) or with compound 9 (0.2 M ammonium acetate, 0.1 M citrate pH 5.5, 30% PEG4000); sitting drop, 18 °C; dimer of chains A and B",
  "data": [
    {"substance": "NUDT5 (from UniProt Q9UKK9 1-208) (enzyme)", "values": [
      {"measurement": "stoichiometry N", "result": 2}
    ]}
  ]
}
